According to ChEMBL document CHEMBL2216752, “Carnitine palmitoyltransferase (CPT) modulators: a medicinal chemistry perspective on 35 years of research” (J Med Chem, 2011):

Tests used:
[1] = target: T1, Carnitine O-palmitoyltransferase 1, liver isoform (Homo sapiens, UniProt P50416); assay: Inhibition of human CPT1A
T1 sequence (P50416 whole entry): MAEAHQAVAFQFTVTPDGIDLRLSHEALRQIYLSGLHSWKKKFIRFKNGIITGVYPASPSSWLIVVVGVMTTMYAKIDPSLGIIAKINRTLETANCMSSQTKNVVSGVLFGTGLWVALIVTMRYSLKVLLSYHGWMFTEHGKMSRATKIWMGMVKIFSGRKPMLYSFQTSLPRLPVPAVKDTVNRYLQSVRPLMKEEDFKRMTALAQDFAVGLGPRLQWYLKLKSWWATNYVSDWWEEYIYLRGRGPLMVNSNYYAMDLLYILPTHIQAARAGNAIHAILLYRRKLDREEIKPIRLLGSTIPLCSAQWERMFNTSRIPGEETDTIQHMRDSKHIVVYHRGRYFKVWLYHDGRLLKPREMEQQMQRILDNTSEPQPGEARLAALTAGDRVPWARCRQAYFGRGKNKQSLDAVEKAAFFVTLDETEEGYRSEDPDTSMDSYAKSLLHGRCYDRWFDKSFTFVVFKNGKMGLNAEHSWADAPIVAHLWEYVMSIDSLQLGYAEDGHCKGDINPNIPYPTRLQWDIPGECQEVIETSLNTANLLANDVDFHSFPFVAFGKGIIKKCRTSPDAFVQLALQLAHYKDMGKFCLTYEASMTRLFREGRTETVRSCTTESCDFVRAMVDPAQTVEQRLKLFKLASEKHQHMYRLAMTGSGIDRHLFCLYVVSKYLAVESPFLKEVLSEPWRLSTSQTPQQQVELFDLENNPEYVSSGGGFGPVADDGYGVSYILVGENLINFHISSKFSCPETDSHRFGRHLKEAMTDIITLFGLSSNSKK

[2] = target: T2, Carnitine O-palmitoyltransferase 2, mitochondrial (Homo sapiens, UniProt P23786); assay: Inhibition of human CPT2
T2 sequence (P23786 whole entry): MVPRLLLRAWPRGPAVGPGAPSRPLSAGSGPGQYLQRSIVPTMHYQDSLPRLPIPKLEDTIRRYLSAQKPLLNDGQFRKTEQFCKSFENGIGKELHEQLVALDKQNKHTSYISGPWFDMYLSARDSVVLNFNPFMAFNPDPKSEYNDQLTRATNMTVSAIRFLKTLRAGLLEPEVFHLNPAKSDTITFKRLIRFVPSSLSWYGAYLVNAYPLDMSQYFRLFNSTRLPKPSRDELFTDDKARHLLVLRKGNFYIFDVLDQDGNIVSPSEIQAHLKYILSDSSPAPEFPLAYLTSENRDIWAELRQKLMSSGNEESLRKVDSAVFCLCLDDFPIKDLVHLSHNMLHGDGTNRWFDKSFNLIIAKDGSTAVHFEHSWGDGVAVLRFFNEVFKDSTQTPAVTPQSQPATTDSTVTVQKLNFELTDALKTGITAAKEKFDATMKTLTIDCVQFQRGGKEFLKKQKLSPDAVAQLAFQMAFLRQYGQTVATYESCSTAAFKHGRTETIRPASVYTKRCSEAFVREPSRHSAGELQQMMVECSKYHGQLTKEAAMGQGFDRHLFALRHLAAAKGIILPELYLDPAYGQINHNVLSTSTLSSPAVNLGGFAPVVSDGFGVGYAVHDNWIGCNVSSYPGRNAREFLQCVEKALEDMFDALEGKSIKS

- IC50 [1]: 140 µM
- IC50 [2]: > 100 µM
Structure (SMILES): CCCCc1oc2ccccc2c1C(=O)c1cc(I)c(OCCN(CC)CC)c(I)c1 [AMIODARONE]
